Among the data in PubChem BioAssay AID651965 (National Center for Advancing Translational Sciences (NCATS), 2013) are Potency values, retold here.

Protein sequences, listed by entry. Tags and fused reporters are not part of them. Lines headed by an entry give the natural chain unless they say otherwise; changes in a name come on top.
UniProt P80244: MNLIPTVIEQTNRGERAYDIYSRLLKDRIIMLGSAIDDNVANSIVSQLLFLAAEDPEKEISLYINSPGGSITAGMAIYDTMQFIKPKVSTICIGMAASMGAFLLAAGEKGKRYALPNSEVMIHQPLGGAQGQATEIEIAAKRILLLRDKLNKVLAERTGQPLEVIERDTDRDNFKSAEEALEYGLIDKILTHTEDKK

The entries are a selection whose mix differs from that of the whole data set. Inconclusive results are not listed. Active and inactive are the calls of the source. Calls follow the shape of the dose curve; as a rule, active = well fitted falling curve with a large enough effect; inconclusive = small, poorly fitted or top-dose-only effect; inactive = no such curve, though single readings can be large or run the other way.
Potency is read from the fitted curve at half-maximal effect.

The target of this assay is ATP-dependent Clp protease proteolytic subunit (Bacillus subtilis (strain 168)) (UniProt P80244). Briefly: qHTS Assay for Activators of ClpP. Also: the source files actives as falling curves though it sought activators and does not explain the sign; nearly all actives have a fitted effect of over 65% in size. Particulars: purified B. subtilis ClpP, FRET peptide cleavage, 20 min. (In general: qHTS replaces the single test concentration by a dilution series.)
On to `CCc1cc(O)c([N+](=O)[O-])c(C)c1[N+](=O)[O-]`, for which the Potency is active: 28.2 µM.
Next, `O=P(Nc1nccs1)(c1ccccc1)c1ccccc1`: active: 22.4 µM.
